Values of other authors in patent US20260108561A1, “COMPOSITION FOR CELL TRANSPLANTATION THERAPY AND THE USE THEREOF” (NATIONAL UNIVERSITY OF SINGAPORE, priority 2022, published 2026).

Settings: cited from earlier work

For Maraviroc, the half-life is listed as 14 to 18 h.
